Earlier results as cited in US20170015852A1, “INK COMPOSITION” (KERACOL LIMITED, priority 2014, published 2017).

Tested on: human health

Substance: anthocyanins
- threat to human health: pose no threat to human health
